## scFv variants of Ab-95 (light chain) against a SARS-CoV-2 spike peptide

Target: peptide PDVDLGDISGINAS, taken from heptad repeat 2 (HR2) of SARS-CoV-2 spike.

Each scFv is VH, a (GGGGS)3 linker, VL, as in the parent Ab-95, and differs from it in the CDRs of the light chain only.
VH: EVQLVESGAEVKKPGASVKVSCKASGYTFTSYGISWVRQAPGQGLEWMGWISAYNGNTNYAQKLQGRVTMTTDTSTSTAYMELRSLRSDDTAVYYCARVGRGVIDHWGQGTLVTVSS
VL: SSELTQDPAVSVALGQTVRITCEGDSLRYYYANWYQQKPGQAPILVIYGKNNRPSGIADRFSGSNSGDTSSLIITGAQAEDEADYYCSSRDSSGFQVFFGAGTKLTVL

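The starting antibody came from a phage panning campaign against this peptide. In library AAYL52, one, two or three CDR residues were substituted; doubles and triples were drawn at random. The assay is AlphaSeq: two haploid yeast populations carry antibody and antigen on their surface. After mating in shaken culture at 30 °C for 16 h, diploids were selected and their barcode pairs sequenced. Scores were corrected for input abundance and mapped to Kd with protein pairs of known affinity run in the same pool. Each pool was mated in three replicate cultures.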

The parent's light chain CDRs are EGDSLRYYYAN, GKNNRPS, SSRDSSGFQVF; each variant's own CDRs replace them letter for letter.
Every variant below is changed at K50 of the VL (sequential numbering).
The read-out is the apparent dissociation constant on a log10 scale (nM): the lower, the stronger.
Replicates are averaged; those with no signal do not enter the mean.
"nd" marks a missing value. The strain was present, yet no cells mated with the target were sequenced in any replicate, which points to weak or no binding.
The list is sorted by this average, lowest first, undetected variants last.

For EGDSLTYNYAN | GTNNRPS | SSRDSSGFQVF, the assay gave 0.88 (3 of 3 replicates). With EGDSLRYYAAN | GENNRPS | SSRDSSGFQVW the result was 1.04 (3 of 3 replicates). For KGDSLRYYYAN | GEKNRPS | SSRDSSGFQVF, the assay gave 1.57 (3 of 3 replicates). Variant EGDSLRYMYAL | GTNNRPS | SSRDSSGFQVF gave 1.57 (3 of 3 replicates). Variant EGDSLRYYYAN | GNNNRPS | SSRDSSGFQVF showed 1.87 (3 of 3 replicates). Variant EGDSLRYYLAN | GNNNRPS | SSRDNSGFQVF gave 1.90 (3 of 3 replicates). Variant EGDSLRYYYAN | GRNNRPS | SSRDSSGFQVR gave 2.09 (3 of 3 replicates). For EGNSLRYYYAN | GPNNRPS | SSRDSSGFQVF, the assay gave 2.11 (3 of 3 replicates).

For EGDSLRYYYAN | GPNSRPS | SSRISSGFQVF, the assay gave 2.16 (3 of 3 replicates). Variant MWDSLRYYYAN | GSNNRPS | SSRDSSGFQVF showed 2.33 (3 of 3 replicates). With EGFSLRYYYAN | GTGNRPS | SSRDSSGFQVF the result was 2.39 (3 of 3 replicates). Variant EGDSLRYYYAN | GSNNRPS | SSRDSSGFQVF showed 2.48 (3 of 3 replicates). With EGDSLRHYYAN | GVNNRPS | SSVDSSGFQVF the result was 2.48 (3 of 3 replicates). Variant EGDSLRYYYAN | GHNNRPY | SSRDSSIFQVF showed 2.53 (3 of 3 replicates). With EGDSLRYYYAN | GWNNRPS | SSRDSSGFQVF the result was 2.60 (3 of 3 replicates). With EGDSLPYYYAN | GMNNRPS | SSRDSSGFQVF the result was 2.62 (3 of 3 replicates).

For EGDSLRYYYAN | GPNNRPS | SPRDSSGFQVF, the assay gave 2.65 (3 of 3 replicates). With EGDSLRYYYAN | GPNNRPS | SSADSSGFEVF the result was 2.68 (3 of 3 replicates). Variant EGDSLRYYYAN | GRNNRPS | SSRDSSGFAVF gave 2.84 (3 of 3 replicates). With EGPSLRYYYAN | GPNNRPS | SSRDSYGFQVF the result was 2.84 (1 of 3 replicates). Variant EGDLLRYYYAN | GLNMRPS | SSRDSSGFQVF gave 2.92 (3 of 3 replicates). With EGDSLRYYYAN | GHNNRPS | SSRDSSGGQVL the result was 2.99 (3 of 3 replicates). For EGDSLRYYYAN | GTNNRPA | CSRDSSGFQVF, the assay gave 3.18 (3 of 3 replicates). Variant EGDSLRYYYAN | GENNRPS | SSRDSSGFQQN gave 3.18 (3 of 3 replicates).

Variant EGDHLRYYYAN | GINNRPS | SSEDSSGFQVF showed 3.19 (3 of 3 replicates). With EGDSLRYYNAN | GRPNRPS | SSRDSSGFQVF the result was 3.20 (2 of 3 replicates). Variant EGDSLRYYYFW | GNNNRPS | SSRDSSGFQVF gave 3.24 (1 of 3 replicates). Variant EGDSLRYYYHN | GNNNRPS | SSRDSSGFQIF showed 3.50 (3 of 3 replicates). For EGDSLRYYYFN | GINNRPS | SSRDSSGFGVF, the assay gave 3.55 (1 of 3 replicates). For EGDSLRYYYAN | GYNNRPS | SSVDSSGFQYF, the assay gave 3.61 (3 of 3 replicates). With EGDSLRYYYAM | GFNNNPS | SSRDSSGFQVF the result was 3.75 (1 of 3 replicates). With EGDSVRHYYAN | GWNNRPS | SSRDSSGFQVF the result was 3.88 (1 of 3 replicates).

Variant EGDSLRYYYAN | GMNNRNS | SVRDSSGFQVF showed 3.96 (3 of 3 replicates). Variant EGDSLRYYYAN | GFTKRPS | SSRDSSGFQVF gave 4.05 (2 of 3 replicates). For EGDSLRYYYAN | GDNNRPS | DSRDSSGGQVF, the assay gave 4.08 (1 of 3 replicates). Variant EGKSLRYYYAN | GLNNRLS | SSRDSSGFQVF gave 4.09 (1 of 3 replicates). For EGDVLRYYYAN | GINNRPS | SSRHSSGFQVF, the assay gave 4.15 (2 of 3 replicates). For EGDSWRYYYAN | GFNNRPS | SRRDSSGFQVF, the assay gave 4.23 (2 of 3 replicates). Variant EGDCLRLYYAN | GTNNRPS | SSRDSSGFQVF gave 4.23 (1 of 3 replicates). For EGDSLRYYYAN | GFNNRPS | SSRDSSGFQEH, the assay gave 4.27 (2 of 3 replicates).

Variant EGDALRYYYAN | GCNNRPS | SSRDHSGFQVF gave 4.44 (2 of 3 replicates). Variant EGDSLRYYYDN | GTNNRPS | SSRDSAGFQVF gave 4.54 (1 of 3 replicates). Variant EGDSLRYYYAN | GMNNQPS | SSRDSSLFQVF showed 5.54 (1 of 3 replicates). Variant EGDSLRYYYAE | GVNNRPS | SSRDSSGFLVF showed 6.07 (2 of 3 replicates). For EGDSLRYYYAN | GFNNRPS | SSRDSEGEQVF, the assay gave nd (0 of 3 replicates). For EGDCLRYYYAN | WHNNRPS | SSRDSSGFQVF, the assay gave nd (0 of 3 replicates). Variant EGDSLRYYYAN | GWNCRTS | SSRDSSGFQVF gave nd (0 of 3 replicates). Variant EGDSLRYYYAN | GSNNRPS | SSRDSSGFQVW gave nd (0 of 3 replicates).

Variant SGDSLRYYYAN | KDNNRPS | SSRDSSGFQVF gave nd (0 of 3 replicates). For EGDSLRYYYAN | GGNNRPS | SSRISSGFQVF, the assay gave nd (0 of 3 replicates). With EGDSLRLYYAN | GINNRPS | SNRDSSGFQVF the result was nd (0 of 3 replicates). Variant PGDSLRYYKAN | GRNNRPS | SSRDSSGFQVF showed nd (0 of 3 replicates).

A selection of 7 entries from above:

{"CDR-L1": "EGDSLRYYYAN", "CDR-L2": "GRNNRPS", "CDR-L3": "SSRDSSGFQVR", "mean log10 Kd (nM)": "2.09", "replicates with signal": "3/3"}
{"CDR-L1": "EGDSLRYYYAN", "CDR-L2": "GNNNRPS", "CDR-L3": "SSRDSSGFQVF", "mean log10 Kd (nM)": "1.87", "replicates with signal": "3/3"}
{"CDR-L1": "EGDSLRYYYAM", "CDR-L2": "GFNNNPS", "CDR-L3": "SSRDSSGFQVF", "mean log10 Kd (nM)": "3.75", "replicates with signal": "1/3"}
{"CDR-L1": "EGDSLRYYNAN", "CDR-L2": "GRPNRPS", "CDR-L3": "SSRDSSGFQVF", "mean log10 Kd (nM)": "3.20", "replicates with signal": "2/3"}
{"CDR-L1": "MWDSLRYYYAN", "CDR-L2": "GSNNRPS", "CDR-L3": "SSRDSSGFQVF", "mean log10 Kd (nM)": "2.33", "replicates with signal": "3/3"}
{"CDR-L1": "EGDLLRYYYAN", "CDR-L2": "GLNMRPS", "CDR-L3": "SSRDSSGFQVF", "mean log10 Kd (nM)": "2.92", "replicates with signal": "3/3"}
{"CDR-L1": "EGDCLRLYYAN", "CDR-L2": "GTNNRPS", "CDR-L3": "SSRDSSGFQVF", "mean log10 Kd (nM)": "4.23", "replicates with signal": "1/3"}

In this assay the parent's reference entry averaged 2.31; its copy inside this library read 2.25.
As a blank, each scFv also met three strains without target: over library AAYL52, 28% of these pairings were detected, typically at 3.91 and seldom below 2.90.

Source: Engelhart et al. 2022 (doi:10.1038/s41597-022-01779-4), MIT Lincoln Laboratory and A-Alpha Bio; data file from the FLAb repository.